Measured affinities in a library of Ab-14 heavy chain variants

Target: peptide PDVDLGDISGINAS, taken from heptad repeat 2 (HR2) of SARS-CoV-2 spike.

Each scFv is VH, three GGGGS repeats, VL, as in the parent Ab-14, and differs from it in the CDRs of the heavy chain only.
VH: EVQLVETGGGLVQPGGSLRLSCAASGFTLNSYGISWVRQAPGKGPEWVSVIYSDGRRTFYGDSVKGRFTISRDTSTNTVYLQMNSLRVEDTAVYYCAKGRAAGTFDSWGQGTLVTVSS
VL: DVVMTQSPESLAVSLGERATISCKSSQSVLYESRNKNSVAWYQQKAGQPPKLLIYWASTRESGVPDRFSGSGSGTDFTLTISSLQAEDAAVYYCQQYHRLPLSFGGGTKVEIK

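The starting antibody came from a phage panning campaign against this peptide. These sequences belong to a second round, designed from the earlier measurements on random variants of the parent. Several design methods are mixed in this list. AlphaSeq pools MATa yeast showing the antibodies with MATalpha yeast showing the peptide. Mating (16 h, 30 °C) was followed by selection of diploids and sequencing of their barcodes. The ratio of observed to expected reads was calibrated, replicate by replicate, on BCL2-family standards whose Kd was known from biolayer interferometry. Each pool was mated in six replicate cultures.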

Variants are written as CDR1, CDR2 and CDR3 of the heavy chain (limits as in the source). Parent: GFTLNSYGIS, VIYSDGRRTFYGDSVK, GRAAGTFDS. The Kd shown is the geometric mean over detected replicates; a lower Kd is a better binder. "nd" means that the variant was in the library but no mating with the target was seen in any replicate; the authors take this as a sign of poor binding, and no number exists. The authors' rule: three or more of the six replicates give a measured affinity, fewer mean a poor binder.

With GMDLDEYGIS / VIYADGERSAFANQVK / GVLGGFLTV the result was nd (0 of 6 replicates; controls 0 of 18).
With GFTLNEYGIS / VIYSDGRRTFYGDSTK / GRAAGTFSS the result was nd (0 of 6 replicates; controls 0 of 18).
With GFGLNSYGIS / VDYSDGRRTEYGDSVK / GSAKGTFDS the result was nd (0 of 6 replicates; controls 0 of 18).
With GFDLNSYGIS / VIYSDGRRTFYGDSVK / GRIAGTFDA the result was 2.2 nM (6 of 6 replicates; controls 0 of 18).
With GFTLNQYGIS / VIYADGRRTFYGDSVK / GQAAGTFDS the result was 330 pM (6 of 6 replicates; controls 0 of 18).
With GFDLNEYGIS / VIYADGSRTFYSDSVK / GNTAGTFDA the result was 500 pM (6 of 6 replicates; controls 0 of 18).
With GFTLNDYGIS / VIYSDGQRTFYSDSVK / GRAAGTFDS the result was 59 nM (6 of 6 replicates; controls 0 of 18).
With GFDLNEYGIS / VIYADGQRTAYSDSVK / GQNAGTFDV the result was 20 pM (6 of 6 replicates; controls 0 of 18).
With GFDLDEYGIS / VIYADGMRTYYADDVK / GNNAGTFDV the result was 1.8 nM (6 of 6 replicates; controls 0 of 18).
With GQDINEYGIS / VIYADGIRTAYAQSVK / GYHGSQFDI the result was nd (0 of 6 replicates; controls 0 of 18).
With GFDLNEYGIS / VIYADGVRTAYADSVK / GNQAGTFDV the result was 240 pM (6 of 6 replicates; controls 0 of 18).
With GFSLNSYGIS / VIYSDGRRTFYGDQVK / GNVAGTFDS the result was 910 pM (6 of 6 replicates; controls 0 of 18).
With GFDLNEYGIS / VIYADGRRTAYADKVK / GNTAGTFDV the result was 270 pM (6 of 6 replicates; controls 0 of 18).
With GFDLNEYGIS / VIYADGLRTFYSDSVK / GENAGTFDV the result was 3.5 nM (6 of 6 replicates; controls 0 of 18).
With GFDLNEYGIS / VIYADGQRTAYADSVK / GKNAGTFDS the result was 500 pM (6 of 6 replicates; controls 0 of 18).
With GFNLNSHGIS / VIYSDGRRTFYGDSVK / GRAAGTFDS the result was 120 nM (4 of 6 replicates; controls 0 of 18).
With GFSLNSYGIS / VIYSDGRRTFYSDSVK / GMLAGTFDS the result was 1.2 nM (6 of 6 replicates; controls 0 of 18).
With GFDLDEYGIS / VIYADGQRTAYADSVK / GGNAGTFDV the result was 380 pM (6 of 6 replicates; controls 1 of 18).
With GFTLQSYGIS / VIYSDGRRTFYGDSVK / GREAGTFDL the result was 1.6 nM (6 of 6 replicates; controls 0 of 18).
With GFKIDEYGIS / VIYADGIRRAYADNVK / GYTDDAFDM the result was nd (0 of 6 replicates; controls 0 of 18).
With GFDLNEYGIS / VIYADGRRTFYADSVK / GEVAGTFVL the result was 2.5 nM (6 of 6 replicates; controls 0 of 18).
With GFDLNEYGIS / VIYADGKRTAYADSVK / GSNAGTFDM the result was 1.4 nM (6 of 6 replicates; controls 0 of 18).
With EFTLNSYGIS / VIYADGRRTFYGDSVK / GQAAGTFDK the result was 21 nM (4 of 6 replicates; controls 0 of 18).
With GPSLDEYGIS / VIYADGVRQYYADDVK / GGIAGQVNY the result was nd (0 of 6 replicates; controls 0 of 18).
With GFDLNEYGIS / VIYADGRRSFYADSVK / GQVAGTFDS the result was 310 pM (6 of 6 replicates; controls 0 of 18).
With GFTLNSYGIS / VIYSDGYRTFYGDSVK / GEIAGTKDS the result was nd (0 of 6 replicates; controls 0 of 18).
With GFDLDEYGIS / VIYADGKRTFYADSVK / GEVAGTFDL the result was 860 pM (4 of 6 replicates; controls 0 of 18).
With GFDLNEYGIS / VIYADGMRTAYADSVK / GNQAGTFNV the result was 830 pM (6 of 6 replicates; controls 0 of 18).
With GFDLNEYGIS / VIYADGRRTFYADSVK / GNTAGTFII the result was 3.6 nM (6 of 6 replicates; controls 0 of 18).
With GFDLNEYGIS / VIYADGRRTFYSDSVK / GTIGGTFDM the result was 360 pM (6 of 6 replicates; controls 0 of 18).
With GFDLNMYGIS / VIYSDGLRTFYHDSVK / VWAAGTFDS the result was nd (0 of 6 replicates; controls 0 of 18).
With GFDLNEYGIS / VIYADGQRTFYTDNVK / GQNAGTFDS the result was 430 pM (6 of 6 replicates; controls 0 of 18).
With GFELNSYGIS / VIYSDGRRTFYADSVK / GTAAGTFDS the result was 7.6 nM (6 of 6 replicates; controls 0 of 18).
With GFDLDEYGIS / VIYADGMRTAYSDSVK / GTNAGTFDQ the result was 210 pM (6 of 6 replicates; controls 0 of 18).
With GFDLNEYGIS / VIYADGKRTFYADNVK / GEVAGTFIV the result was nd (0 of 6 replicates; controls 0 of 18).
With GFTLNDYGIS / VIYSDGRRTFYGDSVK / GKAAGTFVS the result was 1.7 nM (6 of 6 replicates; controls 0 of 18).
With GRTLNSYGIS / VIYSDGRRTFYSDSVK / GRAGLTFDS the result was nd (0 of 6 replicates; controls 1 of 18).
With GFDLNEYGIS / VIYADGKRTFYADSVK / GNAAGTFDS the result was 630 pM (6 of 6 replicates; controls 1 of 18).
With GFDLDEYGIS / VIYADGRRTAYSDSVK / GNVAGTFDI the result was 230 pM (6 of 6 replicates; controls 0 of 18).

The 3 strongest on average among those seen in every replicate, once more:

{"CDR-H1": "GFDLNEYGIS", "CDR-H2": "VIYADGQRTAYSDSVK", "CDR-H3": "GQNAGTFDV", "Kd": "20 pM", "seen in": "6/6", "control signals": "0/18"}
{"CDR-H1": "GFDLDEYGIS", "CDR-H2": "VIYADGMRTAYSDSVK", "CDR-H3": "GTNAGTFDQ", "Kd": "210 pM", "seen in": "6/6", "control signals": "0/18"}
{"CDR-H1": "GFDLDEYGIS", "CDR-H2": "VIYADGRRTAYSDSVK", "CDR-H3": "GNVAGTFDI", "Kd": "230 pM", "seen in": "6/6", "control signals": "0/18"}

A sequence measured in both rounds can read differently, since the two assays cover different ranges. Of ten entries with the parent sequence, four were seen in most replicates (averages 2.2 nM to 240 nM), three in one and three in none, so single entries are noisy. Nonspecific signal, from three strains lacking the peptide, appeared in 1% of pairings of all heavy chain designs, centred on 120 nM (5% of these signals below 7.0 nM); values are not corrected for it. Also given: how often the same scFv was detected with the empty control strains.

The measurements come from Li et al. 2023 (doi:10.1038/s41467-023-39022-2) through the FLAb antibody collection.